Response (percent of control binding) data for 82 molecules are collected here from PubChem BioAssay AID1423 (NMMLSC, 2008).

Sequences of proteins named here, by UniProt entry; tags and fusion partners are left off.
UniProt P09471, whole entry: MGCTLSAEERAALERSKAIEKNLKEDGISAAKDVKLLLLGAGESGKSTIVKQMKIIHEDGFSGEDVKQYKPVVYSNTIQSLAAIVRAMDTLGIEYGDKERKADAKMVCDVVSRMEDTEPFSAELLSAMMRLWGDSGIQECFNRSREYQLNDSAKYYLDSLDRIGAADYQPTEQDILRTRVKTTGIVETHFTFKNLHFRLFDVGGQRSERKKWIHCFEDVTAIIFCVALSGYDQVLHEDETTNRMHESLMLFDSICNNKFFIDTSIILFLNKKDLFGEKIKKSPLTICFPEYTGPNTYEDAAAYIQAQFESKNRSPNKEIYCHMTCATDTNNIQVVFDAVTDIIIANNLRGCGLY

This is a selection; strong and weak results do not stand in their true shares. Some salts and complexes are drawn in separate pieces, as the source files them; their charges need not balance. Activity calls are given as the source filed them. No stated cut-off is given here; in the data, active means response below about 60% or above about 140%; inactive means in between.

This experiment concerns the target Guanine nucleotide-binding protein G(o) subunit alpha (Homo sapiens) (UniProt P09471). Briefly: RGS8-Galphao binding modulators, primary screen, biochemical, multiplexed bead flow cytometry (AID 1423).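 Further: Galphao activated as the GDP aluminium fluoride complex binding bead-coupled RGS8.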 The following applies: at 10 µM, actives lie on both sides.
Regarding `O=C(O)c1cccc(Nc2c([N+](=O)[O-])cc([N+](=O)[O-])cc2[N+](=O)[O-])c1`, the response (percent of control binding) was inactive: 101%.
Regarding `CC1=NCCc2c1[nH]c1ccccc21.O=[N+]([O-])c1cc([N+](=O)[O-])c(O)c([N+](=O)[O-])c1`, the response (percent of control binding) was inactive: 105%.
`COc1ccccc1OP(C)(=O)Nc1cccc(Br)c1` (configuration not stated): the response (percent of control binding) was inactive: 100%.
Under `CCOC(=O)c1ccc(NP(C)(=O)Oc2cc(C)cc(C)c2)cc1` (configuration not stated) stands inactive: 105%.
As to `Cc1cc(C)cc(OP(C)(=O)Nc2ccc(C)cc2C)c1` (configuration not stated), the response (percent of control binding) is inactive: 101%.
Under `Cc1ccc(C)c(NP(C)(=O)Oc2ccccc2)c1` (configuration not stated) stands inactive: 85.9%; under `Cc1cc(C)cc(OP(C)(=O)Nc2ccccn2)c1` (configuration not stated), inactive: 104%; under `CP(=O)(Nc1cccc(Br)c1)Oc1ccccc1` (configuration not stated), inactive: 101%.
As for `O=[N+]([O-])c1cc([N+](=O)[O-])c(-n2nnc3ccccc32)c([N+](=O)[O-])c1`, the response (percent of control binding) is inactive: 74.4%.
To `Cc1nc2ccc3ccccc3c2s1.O=[N+]([O-])c1cc([N+](=O)[O-])c(O)c([N+](=O)[O-])c1` belongs inactive: 100%; to `CCOC(=O)C(CC)C1=NC(C)(C)Cc2ccccc21.O=[N+]([O-])c1cc([N+](=O)[O-])c(O)c([N+](=O)[O-])c1` (configuration not stated), inactive: 97.8%; to `O=[N+]([O-])c1cc([N+](=O)[O-])c(Nc2nnnn2CCO)c([N+](=O)[O-])c1`, inactive: 99.7%.
In the case of `CN1CCCCC1COC(=O)C1(O)c2ccccc2CCc2ccccc21` (configuration not stated), the response (percent of control binding) is inactive: 102%.
For the molecule `COc1ccccc1OP(C)(=O)Nc1c(C)cccc1C` (configuration not stated), the response (percent of control binding) is inactive: 101%.
To `CCCOc1ccc(NP(C)(=O)Oc2ccc(Cl)cc2)cc1` (configuration not stated) belongs inactive: 101%.
To `CP(=O)(Nc1ccc(SC(F)(F)F)cc1)Oc1ccccc1` (configuration not stated) belongs inactive: 99.4%; to `CP(=S)(Nn1cnnc1)Oc1ccccc1` (configuration not stated), inactive: 119%; to `CP(=O)(Nc1ccccc1Br)Oc1ccccc1` (configuration not stated), inactive: 113%.
To `COc1ccccc1OP(C)(=O)Nc1ccccc1` (configuration not stated) belongs inactive: 104%; to `CP(=O)(Oc1ccccc1)OC(c1ccccc1)C(F)(F)F` (configuration not stated), inactive: 102%.
Take `CP(=O)(Nc1ccc(SC(F)(F)F)cc1)Oc1ccc(Cl)cc1` (configuration not stated): the response (percent of control binding) is inactive: 100%.
Under `Cc1cccc(C)c1OP(C)(=O)Nc1ccc(SC(F)(F)F)cc1` (configuration not stated) stands inactive: 107%; under `Cc1cc(C)cc(OP(C)(=O)Nc2ccc(SC(F)(F)F)cc2)c1` (configuration not stated), inactive: 103%.
To `CP(=O)(NC(=O)Nc1ccccc1)Oc1ccccc1` (configuration not stated) belongs inactive: 98%.
Under `CCc1ccc(OP(C)(=O)N2CCN(c3ccc([N+](=O)[O-])cc3)CC2)cc1` (configuration not stated) stands inactive: 101%.
Regarding `CCOC(=O)c1ccc(NP(C)(=O)Oc2ccc(OC)cc2)cc1` (configuration not stated), the response (percent of control binding) was inactive: 105%.
To `CCOP(C)(=S)SCC(=O)NC(C)C(=O)O` (configuration not stated) belongs inactive: 96.4%.
With `CP(=O)(Nc1ccccn1)Oc1ccc(Cl)cc1` (configuration not stated), the response (percent of control binding) was inactive: 99.9%.
To `CCN(CC)CCCOC(=O)C(O)(c1ccccc1)c1ccccc1` belongs inactive: 103%; to `O=[N+]([O-])c1ccc2c(c1)C=Nc1ccccc1O2`, inactive: 112%.
Under `Cc1cccc(C)c1OP(C)(N)=O` (configuration not stated) stands inactive: 105%; under `CC(C)(C)c1ccc(OP(C)(=O)Nc2ccc(SC(F)(F)F)cc2)cc1` (configuration not stated), inactive: 101%; under `Cc1ccc(NP(C)(=O)Oc2ccccc2)c(C)c1` (configuration not stated), inactive: 102%.
Under `COc1ccccc1OP(C)(=O)Nc1ccc(C)cc1` (configuration not stated) stands inactive: 92.7%; under `CCOC(=O)c1ccc(NP(C)(=O)Oc2ccccc2)cc1` (configuration not stated), inactive: 104%; under `Cc1cc(C)cc(OP(C)(N)=O)c1` (configuration not stated), inactive: 101%.
As for `COc1ccc(OP(C)(=O)Nc2cccc(F)c2)cc1` (configuration not stated), the response (percent of control binding) is inactive: 98.4%.
To `COc1ccccc1OP(C)(=O)Nc1cc(Cl)ccc1C` (configuration not stated) belongs inactive: 102%; to `Cc1cc(C)cc(OP(C)(=O)Nc2cccc(C(F)(F)F)c2)c1` (configuration not stated), inactive: 103%; to `COc1ccccc1OP(C)(=O)Nc1ccc(C)c(C)c1` (configuration not stated), inactive: 100%.
Under `COc1ccc(OP(C)(=O)Nc2ccccc2Br)cc1` (configuration not stated) stands inactive: 97.9%; under `Cc1nc2ccc3ccccc3c2o1.O=[N+]([O-])c1cc([N+](=O)[O-])c(O)c([N+](=O)[O-])c1`, inactive: 99.7%.
Consider `CP(=O)(Nc1ccc(Cl)cc1Cl)Oc1ccccc1` (configuration not stated), for which the response (percent of control binding) is inactive: 94.2%.
Take `CP(=O)(OCCOc1ccccc1)OCCOc1ccccc1`: the response (percent of control binding) was inactive: 99.5%.
To `COc1ccccc1OP(C)(=O)Nc1ccc(Br)cc1` (configuration not stated) belongs inactive: 97.3%; to `COc1ccc(OP(C)(=O)Nc2ccccn2)cc1` (configuration not stated), inactive: 113%; to `CN(C)CCOC(=O)C(O)(c1ccccc1)C1CCCC1` (configuration not stated), inactive: 103%.
For `Cc1c(NP(C)(=O)Oc2ccc(C(C)C)cc2)c(=O)n(-c2ccccc2)n1C` (configuration not stated), the response (percent of control binding) is inactive: 98.7%.
To `O=[N+]([O-])c1cc([N+](=O)[O-])c(Nc2ccccn2)c([N+](=O)[O-])c1` belongs inactive: 106%.
To `COc1ccccc1OP(C)(=O)Nc1ccc(C)cc1C` (configuration not stated) belongs inactive: 102%; to `CP(=O)(Nc1ccccn1)Oc1ccccc1` (configuration not stated), inactive: 104%; to `CCc1ccc(OP(C)(=O)O)cc1`, inactive: 96.8%.
Under `COc1ccc(OP(C)(=O)Nc2ccc(Br)cc2)cc1` (configuration not stated) stands inactive: 81.2%.
With `CCN(CC)CC(O)COC(=O)C(O)(c1ccccc1)C1CCCCC1` (configuration not stated), the response (percent of control binding) is inactive: 102%.
To `O=C(OCCCN1CCCC1)C(O)(c1ccccc1)C1CCCCC1` (configuration not stated) belongs inactive: 98.3%.
To `CCc1ccc(OP(C)(=O)Nc2cccnc2)cc1` (configuration not stated) belongs inactive: 97.5%; to `CP(=O)(Oc1ccccc1)N1CCOC1=O` (configuration not stated), inactive: 101%; to `COc1ccccc1OP(C)(=O)Nc1ccccc1Br` (configuration not stated), inactive: 103%.
As for `CC(C)(C)c1ccc(OP(C)(=O)O)cc1`, the response (percent of control binding) is inactive: 94.7%.
Take `CP(=O)(Nc1ccc(Cl)cc1)Oc1ccc(F)cc1` (configuration not stated): the response (percent of control binding) was inactive: 103%.
To `CN(C)C(=O)c1c([N+](=O)[O-])cc([N+](=O)[O-])cc1[N+](=O)[O-]` belongs inactive: 96%; to `CCOC(=O)c1ccc(NP(C)(=O)Oc2ccc(Cl)cc2)cc1` (configuration not stated), inactive: 93.9%.
Under `CP(=O)(OC12CC3CC(CC(C3)C1)C2)OC12CC3CC(CC(C3)C1)C2` stands inactive: 102%; under `COc1ccc(OP(C)(=O)Nc2cccc(Br)c2)cc1` (configuration not stated), inactive: 96.8%; under `CN(C)CCOC(=O)C(O)(c1ccccc1)C1CCCCC1` (configuration not stated), inactive: 102%.
In the case of `COc1ccc(NP(C)(=O)Oc2ccccc2OC)cc1` (configuration not stated), the response (percent of control binding) was inactive: 106%.
To `O=[N+]([O-])c1ccc(OP2(=O)COCCO2)cc1` (configuration not stated) belongs inactive: 98.1%.
Under `O=[N+]([O-])c1cc([N+](=O)[O-])c(NCC2CCS(=O)(=O)C2)c([N+](=O)[O-])c1` (configuration not stated) stands inactive: 99.8%.
For the molecule `Cc1cc(-c2cccc3ccccc23)c(C)cn1.O=[N+]([O-])c1cc([N+](=O)[O-])c(O)c([N+](=O)[O-])c1`, the response (percent of control binding) is inactive: 101%.
Under `CP(=O)(Nc1ccc(SC(F)(F)F)cc1)Oc1ccc(F)cc1` (configuration not stated) stands inactive: 102%.
Under `CCOP(C)(=S)SCC(=O)NC(C)(CC)C(=O)O` (configuration not stated) stands inactive: 104%.
Under `CP(=O)(Nc1ccc2c(c1)OCCO2)Oc1ccccc1` (configuration not stated) stands inactive: 90.3%; under `Cc1ccccc1NP(C)(=O)Nc1ccccc1C`, inactive: 101%.
Regarding `CP(=O)(Nc1ccccc1F)Oc1ccccc1` (configuration not stated), the response (percent of control binding) was inactive: 89.3%.
To `CC(C)c1ccc(OP(C)(=O)Nc2ccc(SC(F)(F)F)cc2)cc1` (configuration not stated) belongs inactive: 99.6%; to `O=C(OC1CN2CCC1CC2)c1ccc([N+](=O)[O-])cc1` (configuration not stated), inactive: 101%; to `O=C(OCCN1CCN(CCOCc2ccccc2)CC1)C(O)(c1ccccc1)c1ccccc1`, inactive: 99.8%.
Under `COc1ccc2c(c1O)-c1c(O)c(OC)cc3c1[C@H](C2)[N+](C)(C)CC3.O=[N+]([O-])c1cc([N+](=O)[O-])c([O-])c([N+](=O)[O-])c1[O-]` stands inactive: 95.5%; under `CCOC(=O)c1ccc(NP(C)(=O)Oc2ccc(F)cc2)cc1` (configuration not stated), inactive: 98.2%.
Regarding `COc1ccc(OP(C)(=O)Nc2ccc(SC(F)(F)F)cc2)cc1` (configuration not stated), the response (percent of control binding) is inactive: 101%.
Under `CP(=O)(Nc1ccccc1)Oc1ccc(F)cc1` (configuration not stated) stands inactive: 101%; under `CCCCCOc1ccc(NP(C)(=O)Oc2ccc(Cl)cc2Cl)cc1` (configuration not stated), inactive: 98.9%.
